The numbers were not newly measured in publication PMC5681266, which cites them from elsewhere.

Chains of the proteins cited; added tags and fusions are not shown. Residues count along the entry.
UniProt P48061, 22-89: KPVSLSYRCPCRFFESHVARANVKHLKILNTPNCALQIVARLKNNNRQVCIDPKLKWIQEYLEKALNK

In this data set the target is CXCL12 (Homo sapiens) (UniProt P48061). Conditions: cited from earlier work.

The Kd is the concentration at which binding is half-saturated. As for CXCL12 (from UniProt P48061), the Kd is 140 µM.
